Source: ChEMBL document CHEMBL4265881, “Synthesis and bioactivity of 3,5-dimethylpyrazole derivatives as potential PDE4 inhibitors” (Bioorg Med Chem Lett, 2018)

Tests used:
[1] = species on record: Homo sapiens; experiment: Selectivity ratio of IC50 for human U937 cells-derived PDE4D to IC50 for human U937 cells-derived PDE4B
[2] = species on record: Homo sapiens; experiment: Potency index, ratio of rolipram IC50 to compound IC50 for inhibition of PDE4 in human PBMC assessed as reduction in LPS-stimulated TNFalpha release

Compound `COc1ccc(-c2ccc(C(=O)n3nc(C)cc3C)o2)cc1` has a Ratio IC50 [1] of 5.6 and a Ratio IC50 [2] of 1.6.
